7 compounds from PubChem BioAssay AID438 (Columbia University Molecular Screening Center, 2006) can be followed below.

As a reminder, the inhibition is the relative decrease from the control value, in per cent.

SMILES strings stand for the structures. The list shows a part of the results, in another mix than the full data. Activity calls are given as the source filed them.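 Rule for the calls: active = inhibition above 20% together with a positive visual image hit; inconclusive = visual image hit but inhibition not above 20%; inactive = no visual image hit.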

A short description of this assay: inhibitors of TNFa-induced NFkB p65 translocation, primary screen, imaging, HUVEC, MLSMR starter and 10KST1 sets (AID 438).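 Note: compound added about 3h40 before a 20 min TNFalpha stimulation; signal is the nuclear over cytoplasmic p65 intensity ratio per well.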 As to conditions: HUVEC TNFa-induced p65 nuclear translocation, at 2 µM, active compounds read high, 0% TNFa-plus-vehicle, 100% no-TNFa wells.
As to `Cc1nn(-c2ccccc2)c2c1P(=O)(N1CCOCC1)N(C)C(c1ccccc1)=N2` (configuration not stated), the inhibition is inactive: 0.5%.

Consider `Cc1ccc(OCC(=O)OC2CN3CCC2CC3)cc1` (configuration not stated), for which the inhibition is inactive: -3.8%.

With `Cc1cccc(OCC(=O)OC2CN3CCC2CC3)c1` (configuration not stated), the inhibition was inactive: -1%.

Take `CCOP1(=S)c2c(C)nn(CCC#N)c2N=C(c2ccccc2F)N1C` (configuration not stated): the inhibition was inactive: -2.4%.

Regarding `O=C(COc1ccccc1)OC1CN2CCC1CC2` (configuration not stated), the inhibition was inactive: -0.6%.

On to `COP1(=S)c2c(C)nn(CCC#N)c2N=C(c2ccc(F)cc2)N1C` (configuration not stated), for which the inhibition is inactive: -3.4%.

On to `O=P(Nc1nccs1)(c1ccccc1)c1ccccc1`, for which the inhibition is inactive: 3.9%.
